Experimental data taken from PMC3897731, “Antimicrobial Properties and Membrane-Active Mechanism of a Potential α-Helical Antimicrobial Derived from Cathelicidin PMAP-36” (PLoS ONE, 2014).

Assays:
Details in all cases: broth microdilution, MH broth, 1×10^5 CFU/ml, 24 h at 37°C, visible turbidity, triplicate
[1] = test system: Escherichia coli ATCC 25922
Experimental: (§1) The antimicrobial activity of each peptide was determined against the following bacteria strains: Escherichia coli ATCC 25922, Escherichia coli UB1005, Salmonella enterica serovar typhimurium C77-31, Staphylococcus aureus ATCC 29213, Staphylococcus aureus ATCC 25923 and Staphylococcus epidermidis ATCC 12228. The minimal inhibitory concentrations (MICs) of the peptides were measured according to a modified version of the National Committee for Clinical Laboratory Standards (NCCLS) broth microdilution method as described previously. Briefly, mid-logarithmic phase bacteria were cultured in Mueller-Hinton (MH) broth and then diluted to 1×10^5 CFU/ml. Equal volumes (50 µl) of microorganism solution and 2-fold serially diluted different concentrations (0.25–128 µM) peptides in 0.01% (v/v) acetic acid and 0.2% (w/v) bovine serum albumin (BSA, Sigma) were added to each well of the sterile 96-well plate. After incubation for 24 h at 37°C, MICs were determined as the lowest concentration of peptides that prevented visible turbidity by visual inspection. The tests were performed in triplicate. Cultures without peptides and uninoculated MH broth were employed as positive and negative controls, respectively. In addition, the salt stability of the peptides was tested in the MIC assay mentioned above.

[2] = test system: Staphylococcus aureus ATCC 25923
Experimental: as §1

[3] = test system: Staphylococcus aureus ATCC 29213
Experimental: as §1

CC[C@H](C)[C@H](NC(=O)CN)C(=O)NCC(=O)N[C@@H](C)C(=O)N[C@H](C(=O)N[C@@H](CC(C)C)C(=O)N[C@@H](CCCCN)C(=O)N[C@H](C(=O)N[C@@H](CC(C)C)C(=O)N[C@H](C(=O)N[C@H](C(=O)NCC(=O)N[C@@H](CC(C)C)C(=O)N1CCC[C@H]1C(=O)N[C@@H](C)C(=O)N[C@@H](CC(C)C)C(=O)N[C@H](C(=O)N[C@@H](CO)C(=O)N[C@@H](Cc1c[nH]c2ccccc12)C(=O)N[C@H](C(=O)N[C@@H](CCCCN)C(=O)N[C@@H](CCCNC(=N)N)C(=O)N[C@@H](CCCCN)C(=O)N[C@@H](CCCNC(=N)N)C(=O)N[C@@H](CCC(N)=O)C(=O)N[C@@H](CCC(N)=O)C(N)=O)[C@@H](C)CC)[C@@H](C)CC)[C@@H](C)O)[C@@H](C)O)C(C)C)C(C)C [melittin, reference compound]
MIC E. coli ATCC25922 [1]: 2 µM (≈ 5.69 µg/mL) | MIC S. aureus ATCC 25923 [2]: 8 µM (≈ 22.8 µg/mL) | MIC S. aureus ATCC 29213 [3]: 8 µM (≈ 22.8 µg/mL)

Converted amounts (≈) assume the structure as drawn.
